Drawing on ChEMBL document CHEMBL3044855, “In vitro reactivation of organophosphorus (OP)-inhibited electric eel acetylcholinesterase by novel monoquaternary pyridinium oximes” (2013), this text covers Activity for 18 compounds.

Amino acid sequences for entries named in this document (tags omitted). A change or cut given only in a name is not applied to a line headed by its entry.
UniProt O42275: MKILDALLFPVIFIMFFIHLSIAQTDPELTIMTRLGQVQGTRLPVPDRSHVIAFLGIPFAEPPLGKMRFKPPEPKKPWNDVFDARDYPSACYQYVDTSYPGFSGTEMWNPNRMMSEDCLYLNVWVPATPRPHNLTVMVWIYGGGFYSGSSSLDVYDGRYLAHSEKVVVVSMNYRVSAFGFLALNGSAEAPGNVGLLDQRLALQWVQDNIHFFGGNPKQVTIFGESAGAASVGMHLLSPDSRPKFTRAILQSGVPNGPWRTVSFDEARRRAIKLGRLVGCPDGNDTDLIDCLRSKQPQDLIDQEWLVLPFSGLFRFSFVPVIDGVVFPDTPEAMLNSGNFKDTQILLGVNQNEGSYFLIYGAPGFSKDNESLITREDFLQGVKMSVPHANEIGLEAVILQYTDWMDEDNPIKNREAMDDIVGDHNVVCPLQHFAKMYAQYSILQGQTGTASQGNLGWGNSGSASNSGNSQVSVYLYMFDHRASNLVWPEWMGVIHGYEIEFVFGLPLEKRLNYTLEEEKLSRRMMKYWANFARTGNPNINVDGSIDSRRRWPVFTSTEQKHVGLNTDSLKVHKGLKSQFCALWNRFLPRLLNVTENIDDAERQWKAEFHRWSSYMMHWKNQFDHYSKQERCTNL

Active and inactive are the calls of the source. The rule behind the calls is not given here.

Common to all, as to set-up: scale not given: the % may be the effect or the level left
In test [1] the target is Acetylcholinesterase (Electrophorus electricus) (UniProt O42275). Nature of the test: Reactivation of VX-inhibited Electrophorus electricus (electric eel) acetylcholinesterase using acetylthiocholine iodide as substrate at 1 mM incubated at 15 min post VX-inhibition measured after 40 min by Ellman method. In general terms: In Ellman's method for cholinesterases, released thiocholine reacts with DTNB.

For test [2] the target is unchanged. Nature of the test: Reactivation of VX-inhibited Electrophorus electricus (electric eel) acetylcholinesterase using acetylthiocholine iodide as substrate at 1 mM incubated at 15 min post VX-inhibition for 10 min by Ellman method.
Test [3] shares this target. The test is described as follows: Reactivation of DFP-inhibited Electrophorus electricus (electric eel) acetylcholinesterase using acetylthiocholine iodide as substrate at 1 mM incubated at 15 min post DFP-inhibition for 10 min by Ellman method.
Test [4] shares this target. Nature of the test: Reactivation of sarin-inhibited Electrophorus electricus (electric eel) acetylcholinesterase using acetylthiocholine iodide as substrate at 1 mM incubated at 15 min post sarin-inhibition for 10 min by Ellman method.

As to `CCCCCCCCOC[n+]1cccc(/C=N/O)c1`, the result in test [1] was Active. On the same count and under the same terms, in the case of `CCCCCCCCCCCOC[n+]1cccc(/C=N/O)c1` it was “Active”; in that of `CCCCCCCOC[n+]1ccc(/C=N/O)cc1`, “Active”. Still for that read-out and setting: for `CCCCCCCCOC[n+]1ccc(/C=N/O)cc1` the value was “Active”; for `CCCCCCCCCCCCOC[n+]1ccc(/C=N/O)cc1`, “Active”; for `CCCCCCOC[n+]1ccc(/C=N/O)cc1`, “Active”. In the case of `O/N=C/c1ccc[n+](COCc2ccccc2)c1`, the outcome in test [2], in test [3] and in test [1] was Active. As for `O/N=C/c1cc[n+](COCc2ccccc2)cc1`, the Activity came out at 54% in test [2], 52% in test [3], 26% in test [4] and 59% in test [1].

As for `CCCCCCCCCOC[n+]1cccc(/C=N/O)c1`, the result in test [1] was Active. On to `CCCCCCOC[n+]1cccc(/C=N/O)c1`, for which, in test [1], the outcome was Active. As for `CCCCCCCCCCCOC[n+]1ccc(/C=N/O)cc1`, the result in test [1] was Active.

Turning to `CCCCCCCCCCOC[n+]1ccc(/C=N/O)cc1`, the result in test [1] was Active. On the same count and under the same terms, for `CCCCCCCCCCCCOC[n+]1cccc(/C=N/O)c1` the value was “Active”; for `CCCCCCCCCOC[n+]1ccc(/C=N/O)cc1`, “Active”. On the same count and under the same terms, for `Cc1ccc(COC[n+]2cccc(/C=N/O)c2)cc1` the value was “Active”. For the compound `CCCCCCCOC[n+]1cccc(/C=N/O)c1`, the outcome in test [1] was Active. For `Cc1ccc(COC[n+]2ccc(/C=N/O)cc2)cc1`, the values for the Activity in test [2] and in test [3] were 41% and 42%, respectively. Moreover, the outcome in test [1] was Active. As to `CCCCCCCCCCOC[n+]1cccc(/C=N/O)c1`, the result in test [1] was Active.
